The nature of this test: Selectivity ratio of Ki for displacement of [3H](+)-pentazocine from sigma 1 receptor in guinea pig brain membranes to Ki for displacement of [125I]-RHM-4 from sigma2 receptor in rat liver membranes. Type of test: cell membranes.
In the case of `COc1cc2c(cc1OC)CN(CCCCC(=O)c1c(C)c(OC)c(OC)c(OC)c1OC)CC2`, the Ratio Ki came out at 53.
With `COc1cc2c(cc1OC)CN(CCCCCC(=O)c1c(C)c(OC)c(OC)c(OC)c1OC)CC2`, the Ratio Ki is > 2630.
Next, `COc1cc2c(cc1OC)CN(CCCCCCC(=O)c1c(C)c(OC)c(OC)c(OC)c1OC)CC2`: > 751; `COc1cc2c(cc1OC)CN(CCCC(=O)c1c(C)c(OC)c(OC)c(OC)c1OC)CC2`: > 196.
Next, `COc1cc2c(cc1OC)CN(CCC(=O)c1c(C)c(OC)c(OC)c(OC)c1OC)CC2`: 3.

The record behind these values is ChEMBL document CHEMBL4732061, “Synthesis, binding, and functional properties of tetrahydroisoquinolino-2-alkyl phenones as selective σR/TMEM97 ligands” (Eur J Med Chem, 2021).
